Earlier results, collected in article PMC5452965 (PeerJ, 2017).

By UniProt entry, the sequences of proteins in these tests, tags left out.
UniProt P02550, whole entry: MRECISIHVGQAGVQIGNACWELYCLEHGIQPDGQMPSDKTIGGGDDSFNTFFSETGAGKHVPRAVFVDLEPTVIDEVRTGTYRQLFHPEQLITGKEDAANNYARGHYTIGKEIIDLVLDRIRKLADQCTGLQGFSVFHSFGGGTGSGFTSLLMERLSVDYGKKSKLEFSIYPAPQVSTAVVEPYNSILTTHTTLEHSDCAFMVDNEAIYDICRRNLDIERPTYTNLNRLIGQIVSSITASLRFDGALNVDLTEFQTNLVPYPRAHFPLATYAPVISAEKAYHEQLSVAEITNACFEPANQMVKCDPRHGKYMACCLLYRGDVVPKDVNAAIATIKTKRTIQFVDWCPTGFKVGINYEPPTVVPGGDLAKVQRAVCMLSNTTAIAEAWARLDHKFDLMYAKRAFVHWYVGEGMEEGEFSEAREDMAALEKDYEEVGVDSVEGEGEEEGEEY
UniProt P02554, whole entry: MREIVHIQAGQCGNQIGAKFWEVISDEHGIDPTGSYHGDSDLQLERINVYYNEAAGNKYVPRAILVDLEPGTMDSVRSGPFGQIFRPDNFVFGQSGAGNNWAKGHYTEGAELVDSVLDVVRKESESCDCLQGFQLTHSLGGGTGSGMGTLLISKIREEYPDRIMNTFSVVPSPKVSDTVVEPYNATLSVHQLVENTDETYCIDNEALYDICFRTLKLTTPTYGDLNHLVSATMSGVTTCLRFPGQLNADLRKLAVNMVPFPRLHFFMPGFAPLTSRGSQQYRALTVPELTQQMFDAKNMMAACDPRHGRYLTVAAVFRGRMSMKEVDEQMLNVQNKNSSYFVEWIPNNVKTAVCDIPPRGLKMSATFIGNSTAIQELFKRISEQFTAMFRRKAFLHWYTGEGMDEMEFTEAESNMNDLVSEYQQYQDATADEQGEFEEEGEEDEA

Legend:
[1] = test system: microtubule network in α-tubulin-GFP U2OS cells; conditions: both concentrations (IC80, IC50), ref Wang et al. (2016a); cited from earlier work
[2] = target: T1, Porcine brain tubulin plus MAPs (Sus scrofa, UniProt P02550+P02554); conditions: ref Wang et al. (2016a), cited from earlier work
T1 construct: Porcine brain tubulin plus MAPs was prepared by two cycles of polymerization and depolymerization; from tissue; host or cells: porcine brain

Row | SMILES | effect on cellular microtubule network [1] | inhibition of tubulin polymerization at 1 mM ([2]; 1 mM, Figure 4D) | effect on tubulin assembly in vitro [2]
1 | COc1cc2c(c(OC)c1OC)-c1ccc(OC)c(=O)cc1[C@@H](NC(C)=O)CC2 [Colchicine, colchicine] | decreased the microtubule mass |  | 
2 | C/C1=C/C(=O)O[C@@H]2C[C@@H](CC[C@H](C)/C=C\CC1)O[C@@](O)([C@@H]1CSC(=O)N1)C2 [Latrunculin B, latrunculin B] |  | around 30% | did not exhibit significant inhibition on tubulin assembly
